The subject of this data set is ON=CCc1c[nH]c2ccccc12. The experiment in a line: cells, lysate or membranes. The note with it: NADPH, ATR1 reductase.

In general, Km refers to the concentration of substrate that gives half-maximal velocity.

On to CYP71A13 (Arabidopsis thaliana), for which the Km came to 21.4 ± 2.7 µM.

The values are drawn from publication PMC3867539 (Angewandte Chemie (International ed. in English), 2013).
